The source of these data is PMC8524854, “A novel dual-prodrug carried by cyclodextrin inclusion complex for the targeting treatment of colon cancer” (Journal of Nanobiotechnology, 2021).

For the series, the system named is Kunming mice. The class given is in vivo. As to conditions: 15th day after single oral gavage. How it is done:
All animals were given a single oral gavage of 0.2 mL of different dosage forms, and their body weight was monitored every day. Meanwhile, the toxicity and mortality of all animals were observed every day. The conventional changes such as the cases of the diet, urine, and feces were recorded. On the 15th day after treatment, the blood of each group was collected from the heart and centrifuged at 1,000 × g for 10 min to collect serum. An automated biochemical analyzer was used to detect serum alanine aminotransferase (ALT), aspartate aminotransferase (AST), blood urea nitrogen (BUN), and creatinine (Cr). Meanwhile, the heart, liver, lung, and kidney were quickly excised, washed with normal saline, and weighed. The visceral index is estimated according to the following formula as Viscera Index (%) = Viscera Weight / Body Weight × 100. And then, all the tissues were fixed with 10% formalin and stained with hematoxylin & eosin (H&E) for pathological analysis.

The structures appear in SMILES notation.

Molecule `CCCC(=O)[O-].[Na+]` [NaB, sodium butyrate] gave a Heart index of 0.83 ± 0.12%, a Kidney index of 2.31 ± 0.26%, a Liver index of 7.61 ± 1.33% and a Lung index of 0.84 ± 0.31%. The Cr (serum) was 8.32 ± 0.98 µmol/L.
